Test results published in patent US20240252445A1, “COMPOSITIONS AND METHODS OF PROMOTING AC[…] THERAPEUTIC AND DIAGNOSTIC AGENTS IN THE HEART” (CASE WESTERN RESERVE UNIVERSITY, priority 2021, published 2024).

Test: Clearance of ePL from systemic circulation
Conditions: mouse, in vivo

Q: With poly(L-lactic co glycolic acid) [ePL] as the substance, how does the “ePL persistence in the circulation” value read?
A: < 15 min
